These are literature values, as cited in article PMC9603770, “Broad-Spectrum Inhibitors against Class A, B, and C Type β-Lactamases to Block the Hydrolysis against Antibiotics: Kinetics and Structural Characterization” (Microbiology Spectrum, 2022).

The chains behind the UniProt entries cited, without tags or fusion partners. Residues count along the entry.
UniProt P00811, 20-377: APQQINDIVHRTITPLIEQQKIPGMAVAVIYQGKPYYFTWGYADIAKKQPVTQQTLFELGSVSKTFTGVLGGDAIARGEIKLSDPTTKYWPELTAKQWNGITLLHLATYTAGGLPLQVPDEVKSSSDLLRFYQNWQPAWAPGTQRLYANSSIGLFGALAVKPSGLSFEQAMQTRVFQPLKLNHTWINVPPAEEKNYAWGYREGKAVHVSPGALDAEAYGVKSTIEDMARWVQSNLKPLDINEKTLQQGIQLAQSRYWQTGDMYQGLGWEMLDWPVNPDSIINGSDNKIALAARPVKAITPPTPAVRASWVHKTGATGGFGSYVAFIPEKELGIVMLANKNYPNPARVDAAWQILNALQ

In this series the target is T1, Amp-C (Escherichia coli, UniProt P00811).
T1 construct: made in house; host or cells: E. coli (DH5 and BL21(DE3) named; pET-28a)
Further details: method as in PMID 20921316. The following applies: cited from earlier work.

Structures are written as SMILES. pIC50: −log10 of the molar value.

Broadly, the pIC50 is the IC50 on a negative log10 scale, so that one unit is a factor of ten. For the compound `NC(=O)[C@@H]1CC[C@@H]2CN1C(=O)N2OS(=O)(=O)O` [Avibactam, reference compound], the pIC50 is 6.89.
